Reference: US20110245537A1, “L-carnitine calcium fumarate, preparation method and application for the same” (Liaoning Konepnutra Co., Ltd, priority 2009, published 2011)

Experiment: water solubility of the powder product
Assay type: physicochemical
Conditions: for solubility: water
Experimental: The obtained L-carnitine calcium fumarate is in uniform powder form with good fluidity, more than 98% of which is smaller than 40 mesh size. […] The product has a calcium content of 6.76% with good non-hygrosopicity.
Fumaric acid (23.2 g, 0.2 mol) is suspended in 740 mL water and calcium hydroxide (7.4 g, 0.1 mol) is added under stirring. The mixture is heated up to 70° C. under stirring violently till the solution is clean and allowed to react for two hours, then concentrated under reduced pressure. The dried substance is suspended in 200 mL ethanol under stirring thoroughly, then L-carnitine (16.12 g, 0.1 mol) is added and allowed to react for 3 h at 60˜70° C. Thereafter the obtained substance is cooled at −5˜5° C. for five hours. L-carnitine calcium fumarate is thus obtained by filtration, and in this case 39.5 g of product can be obtained after drying, the yield being 95%.
The obtained L-carnitine calcium fumarate is in uniform powder form and has good fluidity, greater than 98% of which is smaller than 40 mesh in granular size. […] The product has a calcium content of 9.28%, with better non-hygrosopicity.

| Substance | solubility [g/100 mL water] | water-solubility (cold water, powder smaller than 40 mesh size) [g/100 mL] |
| --- | --- | --- |
| L-Carnitine Calcium Fumarate (2:2:1) [Example 1] | 1.8 |  |
| L-Carnitine Calcium Fumarate (1:2:1) [Example 2] | 3.5 | 3.5 |
